Measured values as given in article PMC12250965, “Design and Synthesis of Sulfonium and Selenonium Derivatives Bearing 3′,5′-O-Benzylidene Acetal Side Chain Structure as Potent α-Glucosidase Inhibitors” (Molecules, 2025).
pIC50: −log10 of the molar value. Where two headings read alike, the source gives them in different places.

The chains behind the UniProt entries cited, without tags or fusion partners. Where a name states a change or a piece, a line headed by the entry shows the natural chain unless it says otherwise.
UniProt P23739: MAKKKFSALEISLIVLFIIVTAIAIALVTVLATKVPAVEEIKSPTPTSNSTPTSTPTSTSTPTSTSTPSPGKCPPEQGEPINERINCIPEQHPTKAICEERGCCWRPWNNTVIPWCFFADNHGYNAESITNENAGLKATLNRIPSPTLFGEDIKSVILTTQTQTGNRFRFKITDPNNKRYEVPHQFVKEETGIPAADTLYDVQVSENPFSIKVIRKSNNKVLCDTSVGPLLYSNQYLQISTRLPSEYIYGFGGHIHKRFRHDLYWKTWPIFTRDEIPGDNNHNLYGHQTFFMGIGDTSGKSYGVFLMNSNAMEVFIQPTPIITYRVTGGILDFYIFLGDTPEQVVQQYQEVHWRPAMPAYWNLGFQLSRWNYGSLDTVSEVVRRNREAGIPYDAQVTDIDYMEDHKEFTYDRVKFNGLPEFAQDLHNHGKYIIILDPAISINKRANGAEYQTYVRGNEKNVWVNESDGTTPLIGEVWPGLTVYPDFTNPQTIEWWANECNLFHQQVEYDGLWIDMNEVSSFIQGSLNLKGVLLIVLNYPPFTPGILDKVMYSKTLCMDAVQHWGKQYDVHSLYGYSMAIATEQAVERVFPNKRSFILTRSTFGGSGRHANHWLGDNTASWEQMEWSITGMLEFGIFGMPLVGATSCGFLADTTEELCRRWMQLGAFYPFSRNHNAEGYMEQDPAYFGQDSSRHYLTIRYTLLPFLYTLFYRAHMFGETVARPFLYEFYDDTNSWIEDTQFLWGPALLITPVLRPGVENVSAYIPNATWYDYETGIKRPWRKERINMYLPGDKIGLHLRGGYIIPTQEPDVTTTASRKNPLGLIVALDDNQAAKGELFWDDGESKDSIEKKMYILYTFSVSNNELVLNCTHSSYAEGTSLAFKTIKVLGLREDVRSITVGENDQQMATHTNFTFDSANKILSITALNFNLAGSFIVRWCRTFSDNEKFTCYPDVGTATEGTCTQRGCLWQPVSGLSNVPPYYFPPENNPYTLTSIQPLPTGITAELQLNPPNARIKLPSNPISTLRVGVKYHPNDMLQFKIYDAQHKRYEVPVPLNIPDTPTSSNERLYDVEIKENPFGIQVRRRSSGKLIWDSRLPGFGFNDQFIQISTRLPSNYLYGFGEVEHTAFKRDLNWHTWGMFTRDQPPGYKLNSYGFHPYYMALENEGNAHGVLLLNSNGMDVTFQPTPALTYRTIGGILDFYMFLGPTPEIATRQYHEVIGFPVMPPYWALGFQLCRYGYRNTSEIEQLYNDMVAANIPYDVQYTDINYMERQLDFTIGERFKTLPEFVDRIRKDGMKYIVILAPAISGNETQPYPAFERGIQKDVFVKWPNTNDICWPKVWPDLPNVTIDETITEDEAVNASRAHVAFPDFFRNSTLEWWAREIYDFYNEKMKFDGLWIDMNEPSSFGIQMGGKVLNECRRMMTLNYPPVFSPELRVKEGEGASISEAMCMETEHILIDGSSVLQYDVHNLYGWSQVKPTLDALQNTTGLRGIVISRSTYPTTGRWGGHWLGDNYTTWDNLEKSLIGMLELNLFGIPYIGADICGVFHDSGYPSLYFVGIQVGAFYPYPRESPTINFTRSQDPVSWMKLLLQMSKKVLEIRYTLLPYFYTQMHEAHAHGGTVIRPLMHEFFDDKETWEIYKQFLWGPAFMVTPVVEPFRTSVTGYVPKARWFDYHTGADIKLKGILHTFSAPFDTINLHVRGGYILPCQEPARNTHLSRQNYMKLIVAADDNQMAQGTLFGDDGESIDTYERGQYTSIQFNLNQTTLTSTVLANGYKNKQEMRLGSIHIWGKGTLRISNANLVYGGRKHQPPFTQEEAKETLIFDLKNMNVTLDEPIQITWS

Experiments:
[1] = biological target: T1, rat intestinal sucrase (Rattus norvegicus, UniProt P23739); experiment: Inhibition-kinetic study (Lineweaver–Burk), sucrase; assay type: biochemical; settings: small intestinal α-glucosidase, read-out: Ki Sucrase (Km = 23.56 mM) (converted)
T1 construct: rat small intestinal brush border membrane vesicles were first prepared; from tissue; host or cells: rat small intestine, brush border membrane vesicles
Experimental: In order to explore the inhibitory mechanism of the α-glucosidase by this family of compounds, enzyme kinetic assays were conducted on 20a, 20c, and 10, followed by a detailed kinetic analysis using the Lineweaver–Burk plots. (Figure 3) The small intestinal brush border membrane vesicles were incubated with varying concentrations of maltose (3.27 mg/mL) for maltase assays and sucrose (52.37 mg/mL) for sucrase assays.
For kinetic analyses of maltase and sucrase by compounds (20a, 20c, and 10), the enzyme and test samples (1.0 mg/mL for maltase and 0.2 mg/mL for sucrase) were incubated with increasing concentrations of maltose (2.5, 5, 10, 20, 50, 100 μM) and sucrose (5, 10, 20, 50, 100, 1000 μM) at 37 °C for 30 min. The tube was immediately immersed in boiling water for 2 min to stop the reaction, then cooled with water. The glucose concentration was determined by the glucose-oxidase method. […] The Lineweaver–Burk equation follows as: 1/V=Km/Vmax×[…]
Ki values for each inhibitor were determined by the equation: Ki=[I]×Km/[[…]−Km]

[2] = biological target: T1, rat intestinal sucrase; settings: literature value ^[a]; read-out: IC50 against sucrase; cited from earlier work
[3] = biological target: T1, rat intestinal sucrase; experiment: In vitro α-glucosidase inhibition assay, rat intestinal sucrase; assay type: biochemical; settings: rat small intestinal brush border membrane vesicles; sucrose substrate; mean ± SD (n = 3); read-out: IC50 against sucrase
Experimental: The testing method previously described was modified and used. Thus, rat small intestinal brush border membrane vesicles were first prepared, and its suspension in 0.1 M maleate buffer (pH = 6.0) was used as small intestinal α-glucosidases of maltase and sucrase. A test compound was dissolved in dimethylsulfoxide (DMSO), and the resulting solution was diluted with 0.1 M maleate buffer to prepare the test compound solution (concentration of DMSO: 10%). The substrate solution in maleate buffer ([…], 50 μL), a test compound solution (25 μL), and the enzyme solution (25 μL) were mixed and incubated at 37 °C for 30 min. After incubation, the solution was immediately heated by boiling water for 2 min to stop the reaction, and the solution was mixed with water (150 μL). Glucose concentration was determined by the glucose-oxidase method. […] The IC50 value was determined graphically by a plot of percent inhibition versus log of the test compound.

## C[C@H]1O[C@H](O[C@H]2[C@H](O)[C@@H](O)[C@@H](O[C@H]3[C@H](O)[C@@H](O)C(O)O[C@@H]3CO)O[C@@H]2CO)[C@H](O)[C@@H](O)[C@@H]1N[C@H]1C=C(CO)[C@@H](O)[C@H](O)[C@H]1O (stereo partly drawn) [acarbose]
[1]
  Ki: 1040 nM
[2]
  pIC50: 5.60
[3]
  pIC50: 5.66
